Among the data in US8981112B2, “Inhibitors of β-secretase” (Boehringer Ingelheim International GmbH, priority 2012, dated 2015) are IC50 values, retold here.

Amino acid sequences for entries named in this document (tags omitted). Residues count along the entry.
UniProt P56817, 22-454: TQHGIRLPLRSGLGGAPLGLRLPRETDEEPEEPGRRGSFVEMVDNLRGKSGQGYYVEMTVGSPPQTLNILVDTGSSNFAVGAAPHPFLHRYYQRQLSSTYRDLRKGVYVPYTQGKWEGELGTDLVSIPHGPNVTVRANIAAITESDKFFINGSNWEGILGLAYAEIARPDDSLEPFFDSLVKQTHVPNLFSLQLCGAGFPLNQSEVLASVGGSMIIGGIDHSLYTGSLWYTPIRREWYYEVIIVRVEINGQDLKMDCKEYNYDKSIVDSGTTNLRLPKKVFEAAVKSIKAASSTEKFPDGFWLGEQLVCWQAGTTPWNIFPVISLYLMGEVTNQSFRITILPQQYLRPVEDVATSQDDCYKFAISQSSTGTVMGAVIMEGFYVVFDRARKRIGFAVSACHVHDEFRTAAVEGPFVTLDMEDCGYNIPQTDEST

The experiment concerns the target truncated human beta-secretase, BACE1 (amino acids 1-454) (Homo sapiens (Human), UniProt P56817). Put plainly: BACE1 Assay (Assay 1), fluorescence quench assay. The format is biochemical. As for the experimental part: The inhibitory activity of compounds was assessed by a fluorescence quench assay of BACE1 activity using commercially available substrate HiLyte Fluor™488-Glu-Val-Asn-Leu-Asp-Ala-Glu-Phe-Lys-(QXLT™ 520)-OH (SEQ ID NO:1) AnaSpec, San Jose, Calif.) and truncated human beta-secretase, BACE1 (amino acids 1-454) fused to a myc-his tag and secreted from HEK293/BACEect. cells into OptiMEM™ (Invitrogen). The substrate was dissolved at 1 mg/ml in DMSO.
The assay was performed in the presence of OptiMEM (supernatant collected over 24 h and cleared from cellular debris by centrifugation) containing the ectodomain of BACE1, 25 μl water containing the desired 2-fold concentration of test compound and 2% DMSO, 1 μM substrate peptide, 20 mM NaOAc, pH 4.4, and 0.04% Triton-X100 in a total assay volume of 50 μl in a 384 well plate. […] The reaction was incubated at rt (dark) in an Envision® multilabel reader (Perkin Elmer) and the cleavage of the substrate was recorded as kinetic for 60 min at ex: 485 nm, em: 538 nm. […]
The intensity of fluorescence was regressed against time in order to derive velocities of reaction in all 384 wells. […] IC50 values were calculated by fitting percent control vs. test compound concentration using Assay Explorer.

Read-outs that look alike come from different tables or passages of the source.

Usually IC50 stands for the point on the concentration scale where inhibition reaches its midpoint. For the compound `COC1CCC2(CC1)Cc1ccc(C#N)cc1C21N=C(N)N(CC2CCCO2)C1=O` (centres unmarked) [Comparison example drawing 11, reference compound], where the note is “Table 2 comparison examples, read-out: BACE IC50 (assay 1)”, the IC50 was determined as 35 nM.

`CC[C@H]1C[C@@]2(CC[C@@H]1OC)Cc1ccc(C#N)cc1[C@]21N=C(N)N(C[C@H]2CCCO2)C1=O` [Example 5]: under “read-out: BACE1 IC50 nM (assay 1)”, the IC50 worked out at 8 nM.
